Compounds with a hit are over-represented: about 1.2% of the library has one in this group of screens.
Tb MetRS inh: T. brucei MetRS inhibitors, primary screen, biochemical, luminescence | 360,000 tested, 0.4% active | methionyl-tRNA synthetase (Trypanosoma brucei brucei) | purified T. brucei MetRS, ATP depletion, Kinase-Glo luminescence | inhibition, % at 11.9 µM;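 active = inhibition above a per-plate cutoff of the control wells' mean inhibition plus 3 SD, cut at about 5.5% in these data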;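 note: 0% = DMSO wells median and 100% = median of wells with control inhibitor compound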
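Dosing: 11.9 µM compound single dose, 0.9% DMSO; Assay system: purified T. brucei MetRS enzyme; Measured by: Kinase-Glo luciferase luminescence reporting remaining unconsumed ATP; Schedule: 15 min plus 2 h at 25 °C.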
Yeast UUG start: modulators of start codon recognition fidelity in yeast; AID 602363; hit rate 0.13% among 350,000; activity score, % at 18.7 µM; S. cerevisiae UUG-firefly luciferase reporter, luminescence/redox ratio;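 active = replicate mean at a twofold rise or more, about +100% in these data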;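 note: firefly luciferase made from a UUG start codon reports start codon fidelity; reporter light over untreated wells divided by growth signal over untreated wells; some hits fall short of that in this replicate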
Rce1 inh: yeast Rce1p protease inhibitors, primary screen, biochemical, fluorescence, cell-free homogeneous; 290,000 tested, 0.27% active; CAAX prenyl protease 2 (Saccharomyces cerevisiae (strain ATCC 204508 / S288c)), Q03530; yeast membranes, quenched prenylated peptide cleavage fluorescence; AID 2563, 2010; calls only;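 active = fall in fluorescence gain of 50% or more versus controls, with final raw signal at or below 3038400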;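 note: plate controls were neutral control wells for no effect and wells lacking membranes for full effect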
DSG3 Ab inh: inhibitors of pemphigus antibody binding to DSG3, primary screen, biochemical, bead-based, flow cytometry, scFv-GFP; DSG3-coupled beads, scFv-anti-DSG3-GFP binding; hits give low values; binding (percent of control), % at 10 µM; 310,000 tested, 0.48% active; AID 588358, 2011;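 active = binding more than 3 SD below its plate's average and above zero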;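 note: hits lower antibody fragment binding to DSG3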
Arr AP2 block: inhibitors of beta-arrestin/AP2 binding, primary screen, biochemical, GPCR trafficking, flow cytometry; beta-arrestin 1 C-terminal peptide binding to AP2 beta2-adaptin appendage (human); FITC-arrestin peptide / GST-AP2 beads; AP2 beta2 appendage carries R879A mutation; inhibition, % at 10 µM; 340,000 tested, 0.31% active; AID 504490, 2011;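 active = inhibition above a set limit, near 3 SD of compounds lacking own fluorescence, cut at about 54% in these data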;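 note: plate controls were DMSO wells for no effect and 5 µM unlabelled arrestin peptide for full effect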
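System: GST-AP2 R879A glutathione beads. Medium: PBS with 0.05% Tween 20 and 0.1% BSA. Also added: FITC-arrestin peptide, 50 nM. Incubation: 12 min plus 1 h, RT. Measured by: high-throughput flow cytometry of beads, ex 488, em 535 nm. Evaluation: percent drop in bead-associated FITC signal.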
Tb MetRS conf: T. brucei MetRS inhibitors, confirmation, biochemical, luminescence. AID 624412, 2012. inhibition, % at 11.9 µM. 1,400 tested, 93% active. T. brucei MetRS enzyme, luminescence (ATP depletion). shares compounds with Tb MetRS inh; in the data active = inhibition above about 7%
Jurkat cytotox: Jurkat T cell cytotoxicity, cytotoxicity control for T. brucei MetRS inhibitor project, luminescence, high throughput; shares compounds with Tb MetRS inh; Jurkat cells viability, ATP luminescence; inhibition, % at 8.3 µM; 1,400 tested, 12% active; AID 624413, 2012; in the data active = inhibition above about 15%;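 note: 0% = vehicle and 100% = reference inhibitor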
TbMetRS FP orth: T. brucei MetRS inhibitors, orthogonal assay for T. brucei MetRS inhibitor project, biochemical, fluorescence polarization. inhibition, % at 11.9 µM. 1,400 tested, 44% active. purified T. brucei MetRS. AID 651607, 2012. shares compounds with Tb MetRS inh; in the data active = inhibition above about 17%;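 note: 0% = vehicle wells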
The depositor's hits bear a star; i = inactive; / = no result.

SMILES	Tb MetRS inh	Yeast UUG start	Rce1 inh	DSG3 Ab inh	Arr AP2 block	Tb MetRS conf	Jurkat cytotox	TbMetRS FP orth
COc1ccc(OC)c(CNc2nc3ccccc3n2CCN2CCCCC2)c1	-1	-22	i	110	29	/	/	/
CCCn1c(NCc2cc(OC)ccc2OC)nc2ccccc21	11*	-10	i	101	0	20*	5	4
C[C@@H]1CN([C@H](C)CO)S(=O)(=O)c2ccc(C3=CCCC3)cc2O[C@H]1CN(C)Cc1cccnc1	/	0	/	/	/	/	/	/
COc1ccc(S(=O)(=O)N(C)C[C@H]2OCCCC[C@H](C)Oc3ccc(NC(=O)c4ccncc4)cc3C(=O)N([C@@H](C)CO)C[C@@H]2C)cc1	/	17	/	/	/	/	/	/
CC(=O)NCCCOc1ccc([N+](=O)[O-])cc1Cl	7.3*	-5	i	92	17	14*	-1	5
C[C@@H]1CN([C@@H](C)CO)C(=O)c2cc(NC(=O)CCN3CCOCC3)ccc2O[C@H]1CN(C)S(=O)(=O)c1ccc(Cl)cc1	/	7	/	/	/	/	/	/
NC(=O)CNC(=O)C1CCCc2c1[nH]c1ccc(Cl)cc21 (stereo not given)	1	-1	i	127	7	/	/	/
CCOC(=O)CNC(=O)C1CCCc2c1[nH]c1ccc(Cl)cc21 (stereo not given)	12*	/	i	96	9	20*	0	4
C[C@@H]1CN([C@@H](C)CO)C(=O)c2cccc(NC(=O)C3CCOCC3)c2O[C@@H]1CN(C)Cc1ccccc1	/	2	/	/	/	/	/	/
O=C1CC(N2CCC(c3nc4ccccc4o3)CC2)C(=O)N1c1cc(Cl)cc(Cl)c1 (stereo not given)	6.0*	-10	i	101	-1	2	3	-6
COc1ccc(CN=C2Nc3ccccc3CS2)cc1	7.7*	-27	i	97	13	25*	4	3
Nc1cc(=O)n(Cc2ccccc2)c(=O)n1-c1ccc(Cl)cc1	0	/	i	112	-12	/	/	/
Nc1nc(Cl)cc(=O)n1Cc1ccc(Cl)cc1	9.4*	/	i	119	13	18*	2	4
O=C(c1ccco1)N1CCN(C(=O)c2ccc(COc3ccc(Cl)cc3Cl)o2)CC1	5.9*	18	i	/	7	16*	2	13
O=C(c1ccco1)N1CCN(C(=O)c2ccc(COc3ccc4c(c3)CCC4)o2)CC1	-2	5	i	104	-3	/	/	/
CN1CCN(C(=O)c2ccc(COc3ccc(Cl)cc3Cl)cc2)CC1	9.9*	-9	i	100	10	19*	8	2
CN(C)CCNC(=O)c1ccc(COc2ccc(Cl)cc2Cl)cc1	9.7*	-1	i	99	0	16*	27*	13
O=C(NCc1nc2ncc(Br)cc2[nH]1)c1ccccc1	6.8*	-16	i	/	-9	16*	1	8
Fc1ccccc1NC(=S)NCCc1cccc(Cl)c1	6.0*	-24	i	108	-3	17*	6	9
CCCCn1c(NS(=O)(=O)c2ccccc2)c(S(=O)(=O)c2ccc(C)cc2)c2nc3ccccc3nc21	16*	/	i	90	-2	12*	1	9
CCCCn1c(NC(=O)c2ccco2)c(S(=O)(=O)c2ccc(C)cc2)c2nc3ccccc3nc21	3	/	i	96	21	/	/	/
CCCCn1c(NC(=O)c2ccc(Br)o2)c(S(=O)(=O)c2ccccc2)c2nc3ccccc3nc21	6.0*	-14	i	97	34	11*	1	1
OC[C@@H]1[C@H](c2ccc(-c3cccnc3)cc2)[C@H]2CN(CC3CCOCC3)CCCCN12	/	-15	/	/	/	/	/	/
COCCNC(=O)C[C@@H]1CC[C@H](NS(=O)(=O)c2ccc(C)cc2)[C@@H](CO)O1	/	-19	/	/	/	/	/	/
Nc1ccc(C(=O)OCc2nc3c(ccc4ccccc43)[nH]2)cc1	7.1*	-21	i	74	28	10*	20*	11

Taken from above:
C[C@@H]1CN([C@@H](C)CO)C(=O)c2cc(NC(=O)CCN3CCOCC3)ccc2O[C@H]1CN(C)S(=O)(=O)c1ccc(Cl)cc1 | Yeast UUG start: 7
OC[C@@H]1[C@H](c2ccc(-c3cccnc3)cc2)[C@H]2CN(CC3CCOCC3)CCCCN12 | Yeast UUG start: -15
Nc1ccc(C(=O)OCc2nc3c(ccc4ccccc43)[nH]2)cc1 | Tb MetRS inh: 7.1*
CCCCn1c(NC(=O)c2ccco2)c(S(=O)(=O)c2ccc(C)cc2)c2nc3ccccc3nc21 | Arr AP2 block: 21
COCCNC(=O)C[C@@H]1CC[C@H](NS(=O)(=O)c2ccc(C)cc2)[C@@H](CO)O1 | Yeast UUG start: -19

(continued)
SMILES	Tb MetRS inh	Yeast UUG start	Rce1 inh	DSG3 Ab inh	Arr AP2 block	Tb MetRS conf	Jurkat cytotox	TbMetRS FP orth
Nc1ccc(C(=O)OCc2nc3cc4ccccc4cc3[nH]2)cc1	3	/	i	76	-6	/	/	/
Cc1ccc(NC(=O)COC(=O)C2(c3ccc(Cl)cc3)CCCC2)cc1	6.9*	-28	i	107	5	12*	3	12
C[C@@H]1CN([C@@H](C)CO)C(=O)c2cc(NS(=O)(=O)c3ccc(Cl)cc3)ccc2O[C@@H]1CN(C)C	/	11	/	/	/	/	/	/
Cc1c(NS(=O)(=O)c2cccc(C(=O)NCc3ccccc3)c2)c(=O)n(-c2ccccc2)n1C	0	-1	i	104	8	/	/	/
Cc1c(NS(=O)(=O)c2cccc(C(=O)NCc3cccc(Cl)c3)c2)c(=O)n(-c2ccccc2)n1C	18*	-3	/	102	-6	43*	6	27*
COC(=O)c1sc(-c2ccc(Cl)cc2)cc1NC(=O)CSCC(=O)O	20*	0	i	101	-1	33*	-7	24*
C[C@@H]1CN([C@@H](C)CO)C(=O)c2cc(C3=CCCCC3)cnc2O[C@@H]1CN(C)C(=O)c1ccc2c(c1)OCO2	/	10	/	/	/	/	/	/
COc1ccc(NC(=O)CC2C(=O)N(c3ccccc3)C(=O)N2CCc2cccs2)cc1 (stereo not given)	32*	-1	i	114	1	46*	-1	24*
CCN1C(=O)C(CC(=O)Nc2ccc(OC)cc2)N(CCc2ccccc2)C1=S (stereo not given)	43*	/	i	111	9	40*	1	25*
CCN1C(=O)C(CC(=O)Nc2ccc(F)cc2)N(CCc2ccc(OC)cc2)C1=S (stereo not given)	30*	/	i	98	-26	47*	-7	36*
CCN1C(=O)C(CC(=O)Nc2ccc(OC)cc2)N(CCN2CCOCC2)C1=S (stereo not given)	-1	-8	i	/	-19	/	/	/
CCN1C(=O)C(CC(=O)Nc2ccc(OC)cc2)N(Cc2cccnc2)C1=S (stereo not given)	0	-18	i	106	-10	/	/	/

Structures listed so far containing fluorine (two):
SMILES	Tb MetRS inh	Yeast UUG start	Rce1 inh	DSG3 Ab inh	Arr AP2 block	Tb MetRS conf	Jurkat cytotox	TbMetRS FP orth
Fc1ccccc1NC(=S)NCCc1cccc(Cl)c1	6.0*	-24	i	108	-3	17*	6	9
CCN1C(=O)C(CC(=O)Nc2ccc(F)cc2)N(CCc2ccc(OC)cc2)C1=S (stereo not given)	30*	/	i	98	-26	47*	-7	36*

High-throughput results from PubChem.
